Target: GABA-A receptor; anion channel (Rattus norvegicus) (UniProt O09028+P15431+P18506+P18508+P19969+P20236+P23574+P23576+P28471+P28473+P30191+P62813+P63079+P63138+Q91ZM7+Q9ES14)
Test: Binding to GABA-A receptor complex relative to TBPS binding to picrotoxin convulsant site
Format: functional
Summary of the method: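 Rat brain membranes ([…]) with 2 nM [35S]TBPS in 1 M NaCl, 10 mM Tris/HCl pH 7.4, 120 min at 24 °C; drugs added from methanol (≤0.2%, constant). Filtration read-out, nonspecific binding with 2 mM unlabeled TBPS.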

Chains of the proteins cited; added tags and fusions are not shown. Lines headed by an entry give the natural chain unless they say otherwise; changes in a name come on top.
UniProt O09028: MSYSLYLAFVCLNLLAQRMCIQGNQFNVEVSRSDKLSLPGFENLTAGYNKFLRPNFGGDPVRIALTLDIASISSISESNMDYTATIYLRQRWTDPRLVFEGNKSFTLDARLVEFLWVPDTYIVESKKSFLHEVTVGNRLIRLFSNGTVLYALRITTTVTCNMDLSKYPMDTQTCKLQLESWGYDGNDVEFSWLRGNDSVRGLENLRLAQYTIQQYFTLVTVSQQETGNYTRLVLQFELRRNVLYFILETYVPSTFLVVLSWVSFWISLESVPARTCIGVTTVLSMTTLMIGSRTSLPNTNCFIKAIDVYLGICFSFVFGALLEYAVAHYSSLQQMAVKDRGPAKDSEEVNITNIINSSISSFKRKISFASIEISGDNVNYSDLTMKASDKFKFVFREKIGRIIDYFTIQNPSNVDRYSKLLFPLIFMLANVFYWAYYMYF
UniProt P15431: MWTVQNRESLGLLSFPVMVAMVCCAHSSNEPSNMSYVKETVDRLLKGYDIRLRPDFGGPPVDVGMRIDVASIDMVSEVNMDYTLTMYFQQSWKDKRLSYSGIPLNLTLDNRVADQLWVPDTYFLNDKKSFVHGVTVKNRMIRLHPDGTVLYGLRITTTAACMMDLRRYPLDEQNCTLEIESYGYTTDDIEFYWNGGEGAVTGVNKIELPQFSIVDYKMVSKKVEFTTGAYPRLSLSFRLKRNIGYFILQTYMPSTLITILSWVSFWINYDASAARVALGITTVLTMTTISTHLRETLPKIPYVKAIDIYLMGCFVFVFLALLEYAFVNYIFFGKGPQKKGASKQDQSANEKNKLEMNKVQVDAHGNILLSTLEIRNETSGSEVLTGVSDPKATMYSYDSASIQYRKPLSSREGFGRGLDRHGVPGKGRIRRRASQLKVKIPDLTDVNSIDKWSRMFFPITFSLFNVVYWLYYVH
UniProt P18506: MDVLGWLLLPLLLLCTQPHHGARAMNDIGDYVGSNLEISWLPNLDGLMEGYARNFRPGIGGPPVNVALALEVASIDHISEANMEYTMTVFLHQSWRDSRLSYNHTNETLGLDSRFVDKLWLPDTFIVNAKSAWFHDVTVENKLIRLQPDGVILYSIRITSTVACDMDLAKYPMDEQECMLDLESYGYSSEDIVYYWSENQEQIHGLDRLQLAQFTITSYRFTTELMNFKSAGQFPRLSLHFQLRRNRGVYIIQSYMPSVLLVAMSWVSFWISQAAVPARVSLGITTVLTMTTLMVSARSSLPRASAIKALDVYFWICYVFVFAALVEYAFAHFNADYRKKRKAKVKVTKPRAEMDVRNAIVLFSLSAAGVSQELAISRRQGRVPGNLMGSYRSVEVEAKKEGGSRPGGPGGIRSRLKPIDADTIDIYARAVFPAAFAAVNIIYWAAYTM
UniProt P18508: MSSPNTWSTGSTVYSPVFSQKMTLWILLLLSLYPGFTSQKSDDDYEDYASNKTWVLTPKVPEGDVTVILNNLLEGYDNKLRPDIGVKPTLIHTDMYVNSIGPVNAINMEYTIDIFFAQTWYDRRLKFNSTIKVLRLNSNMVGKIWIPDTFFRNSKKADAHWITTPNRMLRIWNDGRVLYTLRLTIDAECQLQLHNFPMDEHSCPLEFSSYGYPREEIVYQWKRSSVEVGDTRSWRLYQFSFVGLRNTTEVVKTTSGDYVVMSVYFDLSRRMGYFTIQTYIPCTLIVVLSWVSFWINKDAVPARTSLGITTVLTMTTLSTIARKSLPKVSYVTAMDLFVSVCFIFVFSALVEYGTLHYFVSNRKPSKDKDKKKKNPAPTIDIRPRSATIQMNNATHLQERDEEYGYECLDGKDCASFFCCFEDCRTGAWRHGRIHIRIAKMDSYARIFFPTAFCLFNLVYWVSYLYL
UniProt P20236: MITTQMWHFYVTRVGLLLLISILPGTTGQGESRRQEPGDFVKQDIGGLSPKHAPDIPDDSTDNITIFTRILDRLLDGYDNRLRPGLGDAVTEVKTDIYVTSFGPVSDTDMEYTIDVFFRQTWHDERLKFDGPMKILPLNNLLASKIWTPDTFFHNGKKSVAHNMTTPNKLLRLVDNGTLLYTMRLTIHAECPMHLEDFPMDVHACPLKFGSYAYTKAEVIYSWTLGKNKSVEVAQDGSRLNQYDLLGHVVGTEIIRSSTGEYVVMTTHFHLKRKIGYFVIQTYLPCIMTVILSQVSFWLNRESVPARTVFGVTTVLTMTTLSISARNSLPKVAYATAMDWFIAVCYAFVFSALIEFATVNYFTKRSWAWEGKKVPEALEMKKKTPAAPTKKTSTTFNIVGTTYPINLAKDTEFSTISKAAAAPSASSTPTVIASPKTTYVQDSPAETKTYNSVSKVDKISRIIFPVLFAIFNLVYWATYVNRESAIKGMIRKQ
UniProt P23576: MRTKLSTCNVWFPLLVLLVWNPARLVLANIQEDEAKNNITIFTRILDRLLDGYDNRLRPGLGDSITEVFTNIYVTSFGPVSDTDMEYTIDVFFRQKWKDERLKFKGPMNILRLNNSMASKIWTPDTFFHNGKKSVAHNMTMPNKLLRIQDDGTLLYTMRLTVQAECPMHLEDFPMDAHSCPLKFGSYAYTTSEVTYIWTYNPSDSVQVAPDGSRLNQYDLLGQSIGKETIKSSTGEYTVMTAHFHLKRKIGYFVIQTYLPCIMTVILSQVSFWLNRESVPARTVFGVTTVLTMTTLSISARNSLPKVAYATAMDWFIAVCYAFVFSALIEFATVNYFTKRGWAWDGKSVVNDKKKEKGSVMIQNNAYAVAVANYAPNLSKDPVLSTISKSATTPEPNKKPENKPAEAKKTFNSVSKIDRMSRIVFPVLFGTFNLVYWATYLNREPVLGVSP
UniProt P28471: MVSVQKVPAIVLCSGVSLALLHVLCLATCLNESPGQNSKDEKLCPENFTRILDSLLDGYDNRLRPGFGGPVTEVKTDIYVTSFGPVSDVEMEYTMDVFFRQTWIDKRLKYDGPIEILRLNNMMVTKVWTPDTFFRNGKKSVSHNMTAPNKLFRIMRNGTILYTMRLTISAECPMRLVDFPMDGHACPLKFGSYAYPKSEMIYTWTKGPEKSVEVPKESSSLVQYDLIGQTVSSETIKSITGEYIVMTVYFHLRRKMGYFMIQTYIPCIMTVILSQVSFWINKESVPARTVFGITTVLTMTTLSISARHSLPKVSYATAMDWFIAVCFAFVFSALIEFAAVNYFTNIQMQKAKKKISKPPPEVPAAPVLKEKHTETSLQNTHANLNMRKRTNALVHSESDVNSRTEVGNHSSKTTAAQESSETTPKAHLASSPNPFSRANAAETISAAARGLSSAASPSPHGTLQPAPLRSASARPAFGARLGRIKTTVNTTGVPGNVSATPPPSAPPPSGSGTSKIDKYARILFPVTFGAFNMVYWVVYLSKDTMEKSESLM
UniProt P28473: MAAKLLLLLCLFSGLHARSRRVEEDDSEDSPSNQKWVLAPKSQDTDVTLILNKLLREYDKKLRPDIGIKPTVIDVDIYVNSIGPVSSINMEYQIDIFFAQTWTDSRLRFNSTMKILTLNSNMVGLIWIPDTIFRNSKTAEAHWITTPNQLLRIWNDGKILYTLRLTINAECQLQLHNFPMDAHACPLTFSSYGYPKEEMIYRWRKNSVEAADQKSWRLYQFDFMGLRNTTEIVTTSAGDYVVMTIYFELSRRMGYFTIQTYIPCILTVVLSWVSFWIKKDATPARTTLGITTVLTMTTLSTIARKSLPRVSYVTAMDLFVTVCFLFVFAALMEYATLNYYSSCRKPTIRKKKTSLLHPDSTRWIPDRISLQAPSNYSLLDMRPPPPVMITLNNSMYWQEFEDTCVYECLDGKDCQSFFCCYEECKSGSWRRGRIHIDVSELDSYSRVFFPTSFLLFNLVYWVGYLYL
UniProt P30191: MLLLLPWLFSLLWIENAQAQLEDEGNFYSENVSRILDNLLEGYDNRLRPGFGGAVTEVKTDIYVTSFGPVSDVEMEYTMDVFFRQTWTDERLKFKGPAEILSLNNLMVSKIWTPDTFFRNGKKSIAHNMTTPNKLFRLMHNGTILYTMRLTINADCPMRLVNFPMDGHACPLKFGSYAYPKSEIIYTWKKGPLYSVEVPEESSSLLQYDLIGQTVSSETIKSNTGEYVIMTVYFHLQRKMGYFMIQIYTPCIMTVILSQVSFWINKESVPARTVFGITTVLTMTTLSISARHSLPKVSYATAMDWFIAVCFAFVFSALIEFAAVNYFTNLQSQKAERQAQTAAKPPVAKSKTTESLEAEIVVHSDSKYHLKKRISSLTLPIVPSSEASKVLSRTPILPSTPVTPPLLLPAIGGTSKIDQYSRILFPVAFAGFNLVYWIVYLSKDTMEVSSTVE
UniProt P62813: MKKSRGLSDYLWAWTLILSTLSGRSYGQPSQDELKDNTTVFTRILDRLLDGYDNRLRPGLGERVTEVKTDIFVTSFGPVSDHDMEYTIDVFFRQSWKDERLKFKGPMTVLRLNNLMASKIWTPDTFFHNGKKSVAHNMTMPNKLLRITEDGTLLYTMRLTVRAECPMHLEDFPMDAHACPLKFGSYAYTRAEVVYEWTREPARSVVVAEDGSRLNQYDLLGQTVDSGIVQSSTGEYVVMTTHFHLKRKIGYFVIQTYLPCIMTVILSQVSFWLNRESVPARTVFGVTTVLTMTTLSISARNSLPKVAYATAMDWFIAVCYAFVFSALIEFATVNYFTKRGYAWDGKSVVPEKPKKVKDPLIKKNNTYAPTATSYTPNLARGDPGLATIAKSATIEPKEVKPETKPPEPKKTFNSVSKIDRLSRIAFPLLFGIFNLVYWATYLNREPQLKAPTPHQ
UniProt P63079: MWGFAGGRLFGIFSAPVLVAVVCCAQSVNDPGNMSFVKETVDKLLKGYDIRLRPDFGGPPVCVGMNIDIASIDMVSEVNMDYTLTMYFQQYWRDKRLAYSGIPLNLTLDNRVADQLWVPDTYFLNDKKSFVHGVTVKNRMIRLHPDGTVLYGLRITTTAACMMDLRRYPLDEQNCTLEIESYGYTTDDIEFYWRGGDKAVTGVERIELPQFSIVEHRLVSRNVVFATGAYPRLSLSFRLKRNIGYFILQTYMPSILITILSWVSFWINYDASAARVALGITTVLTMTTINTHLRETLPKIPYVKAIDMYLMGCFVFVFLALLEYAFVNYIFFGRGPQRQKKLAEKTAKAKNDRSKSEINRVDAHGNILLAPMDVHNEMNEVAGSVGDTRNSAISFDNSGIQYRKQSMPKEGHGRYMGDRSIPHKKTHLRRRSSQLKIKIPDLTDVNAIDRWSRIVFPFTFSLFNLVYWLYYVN
UniProt P63138: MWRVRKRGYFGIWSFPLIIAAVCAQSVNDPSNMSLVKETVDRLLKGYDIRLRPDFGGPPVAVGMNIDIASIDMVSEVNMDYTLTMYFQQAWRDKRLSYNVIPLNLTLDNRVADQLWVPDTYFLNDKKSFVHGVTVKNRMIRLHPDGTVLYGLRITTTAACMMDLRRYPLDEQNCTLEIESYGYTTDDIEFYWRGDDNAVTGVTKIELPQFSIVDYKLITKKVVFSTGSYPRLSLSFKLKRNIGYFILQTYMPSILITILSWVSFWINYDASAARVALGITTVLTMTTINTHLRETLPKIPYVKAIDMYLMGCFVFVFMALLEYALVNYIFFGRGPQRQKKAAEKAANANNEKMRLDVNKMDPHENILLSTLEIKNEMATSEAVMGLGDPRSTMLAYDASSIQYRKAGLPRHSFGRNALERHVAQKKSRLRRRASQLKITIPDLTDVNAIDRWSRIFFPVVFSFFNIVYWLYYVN
UniProt Q9ES14: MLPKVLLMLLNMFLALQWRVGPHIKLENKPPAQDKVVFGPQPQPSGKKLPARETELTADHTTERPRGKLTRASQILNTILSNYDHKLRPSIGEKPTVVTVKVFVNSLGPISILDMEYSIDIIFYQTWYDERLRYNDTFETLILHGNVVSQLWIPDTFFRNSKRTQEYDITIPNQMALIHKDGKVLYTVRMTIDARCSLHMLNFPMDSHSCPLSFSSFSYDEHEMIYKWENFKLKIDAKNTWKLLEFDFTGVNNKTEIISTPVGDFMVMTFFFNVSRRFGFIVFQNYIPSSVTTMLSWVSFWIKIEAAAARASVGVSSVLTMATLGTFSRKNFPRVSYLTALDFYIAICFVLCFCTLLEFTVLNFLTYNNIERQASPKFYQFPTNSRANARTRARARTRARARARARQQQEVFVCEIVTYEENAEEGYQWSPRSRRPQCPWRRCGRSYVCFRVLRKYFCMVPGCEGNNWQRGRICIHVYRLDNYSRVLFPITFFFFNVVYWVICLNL

CC(C)n1c(=O)c2c(-c3noc(C4CC4)n3)ncn2c2ccccc21 [PANADIPLON]
Ratio: 0.06
